Assay results reported in patent publication US7825118B2, “Inhibitors of bruton's tyrosine kinase” (Pharmacyclics, Inc., priority 2006, dated 2010).

Amino acid sequences for entries named in this document (tags omitted). A change or cut given only in a name is not applied to a line headed by its entry.
UniProt Q06187: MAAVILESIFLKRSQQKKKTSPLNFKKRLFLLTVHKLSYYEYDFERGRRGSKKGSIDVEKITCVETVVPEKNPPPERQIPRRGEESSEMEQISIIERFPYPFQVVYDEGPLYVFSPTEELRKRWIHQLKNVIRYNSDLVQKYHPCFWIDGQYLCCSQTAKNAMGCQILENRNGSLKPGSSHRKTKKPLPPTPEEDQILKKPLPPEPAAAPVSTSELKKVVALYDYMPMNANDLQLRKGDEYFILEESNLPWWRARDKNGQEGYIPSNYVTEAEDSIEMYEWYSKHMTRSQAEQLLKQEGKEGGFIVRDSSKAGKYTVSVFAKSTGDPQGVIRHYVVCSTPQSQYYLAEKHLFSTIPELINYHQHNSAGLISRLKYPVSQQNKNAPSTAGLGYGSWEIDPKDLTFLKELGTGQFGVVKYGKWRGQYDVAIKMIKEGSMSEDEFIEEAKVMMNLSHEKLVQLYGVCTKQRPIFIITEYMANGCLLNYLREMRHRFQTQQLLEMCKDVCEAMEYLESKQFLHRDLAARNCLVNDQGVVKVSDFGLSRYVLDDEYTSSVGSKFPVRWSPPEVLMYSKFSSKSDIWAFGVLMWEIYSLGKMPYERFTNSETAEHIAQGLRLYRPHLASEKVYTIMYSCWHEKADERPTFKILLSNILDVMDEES

Target: Btk (Homo sapiens, UniProt Q06187)
Assay: Btk acellular kinase assay (TR-FRET)

IC50: 520 pM
Structure (SMILES): C=CS(=O)(=O)N1CCCC(n2nc(-c3ccc(Oc4ccccc4)cc3)c3c(N)ncnc32)C1 (stereo not shown) [Compound 6, 1-(3-(4-amino-3-(4-phenoxyphenyl)-1H-pyrazolo[3,4-d]pyrimidin-1-yl)piperidin-1-yl)sulfonylethene]
